{"source": "patent US10662241B1", "about": "“HER3 antigen-binding molecules” (Hummingbird Bioscience Holdings Pte. Ltd., priority 2019, dated 2020)", "key": {"[1]": {"tested_on": "N87 cells", "experiment": "Antibody internalisation by flow cytometry", "format": "cell-based", "settings": "N87, 0 min to 4.5 hour"}, "[2]": {"tested_on": "N87 cells", "experiment": "Antibody internalisation, pHrodo imaging, N87", "format": "cell-based", "settings": "120 nM, 24 hours"}}, "data": [{"substance": "trastuzumab: anti-HER2 antibody trastuzumab [reference compound]", "values": [{"measurement": "Internalisation", "setting": "[1]", "result": "substantial internalisation"}, {"measurement": "Internalisation", "setting": "[2]", "result": "modest internalization"}]}]}
